Legend:
[1] = Solubility test (1 g sample, solvent needed for a homogeneous and clear solution at 25° C.); assay type: physicochemical; conditions: for mass of sample capable of being dissolved into 100 g of the solvent: Methyl ethyl ketone: per 100 g methyl ethyl ketone; for mass of sample capable of being dissolved into 100 g of the solvent: Toluene: per 100 g toluene; for mass of sample capable of being dissolved into 100 g of the solvent: Ethyl acetate: per 100 g ethyl acetate
Procedure: From this amount of solvent, the mass of each sample that was capable of being dissolved into 100 g of the solvent was calculated.

[2] = Solubility test (4 g sample, solvent needed for a homogeneous and clear solution at 25° C.); assay type: physicochemical; conditions: for mass of sample capable of being dissolved into 100 g of the solvent: PGME: per 100 g propylene glycol monomethyl ether; for mass of sample capable of being dissolved into 100 g of the solvent: PGMEA: per 100 g propylene glycol monomethyl ether acetate; for mass of sample capable of being dissolved into 100 g of the solvent: Acetone: per 100 g acetone; for mass of sample capable of being dissolved into 100 g of the solvent: Acetonitrile: per 100 g acetonitrile
Procedure: (Solubility Test) […] From this amount of solvent, the mass of each sample that was capable of being dissolved into 100 g of the solvent was calculated. In Table 3, PGME is propylene glycol monomethyl ether and PGMEA is propylene glycol monomethyl ether acetate.

SMILES	mass of sample capable of being dissolved into 100 g of the solvent: Methyl ethyl ketone [1] [g]	mass of sample capable of being dissolved into 100 g of the solvent: Toluene [1] [g]	mass of sample capable of being dissolved into 100 g of the solvent: Ethyl acetate [1] [g]	mass of sample capable of being dissolved into 100 g of the solvent: PGME [2] [g]	mass of sample capable of being dissolved into 100 g of the solvent: PGMEA [2] [g]	mass of sample capable of being dissolved into 100 g of the solvent: Acetone [2] [g]	mass of sample capable of being dissolved into 100 g of the solvent: Acetonitrile [2] [g]
O=c1n(CC2CO2)c(=O)n(CC2CO2)c(=O)n1CC1CO1 (stereo not shown) [Example 1, tris-(2,3-epoxypropyl)-isocyanurate]	6.8	1.8	–	–	–	–	–
O=c1n(CC2CO2)c(=O)n(CC2CO2)c(=O)n1CC1CO1 (stereo not shown) [Example 2, tris-(2,3-epoxypropyl)-isocyanurate]	9.3	2.1	6.3	–	–	–	–
O=c1n(CC2CO2)c(=O)n(CC2CO2)c(=O)n1CC1CO1 (stereo not shown) [Example 3, tris-(2,3-epoxypropyl)-isocyanurate]	9.0	2.0	6.1	–	–	–	–
O=c1n(CC2CO2)c(=O)n(CC2CO2)c(=O)n1CC1CO1 (stereo not shown) [Example 6, tris-(2,3-epoxypropyl)-isocyanurate]	–	–	–	2.5	5.1	–	–
O=c1n(CC2CO2)c(=O)n(CC2CO2)c(=O)n1CC1CO1 (stereo not shown) [Example 10, tris-(2,3-epoxypropyl)-isocyanurate]	–	–	–	–	–	24	71
O=c1n(CC2CO2)c(=O)n(CC2CO2)c(=O)n1CC1CO1 (stereo not shown) [Synthesis Example 1, tris-(2,3-epoxypropyl)-isocyanurate]	1.7	0.5	1.4	1.6	2.2	7.8	17
